scFv variants of Ab-95 (light chain) against a SARS-CoV-2 spike peptide

From the AlphaSeq antibody data of Engelhart et al. 2022 (doi:10.1038/s41597-022-01779-4), copy in the FLAb collection.

Target: peptide PDVDLGDISGINAS, taken from heptad repeat 2 (HR2) of SARS-CoV-2 spike.

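Phage display of a naive human antibody library on the peptide gave the parent. AAYL52 was designed without a model: most single CDR substitutions and a random sample of double and triple ones. Affinity was read by AlphaSeq, a pooled yeast mating assay with surface-displayed partners. After mating in shaken culture at 30 °C for 16 h, diploids were selected and their barcode pairs sequenced. Read counts were normalised to the haploid input and turned into Kd by a linear fit to BCL2-family pairs of known affinity, for each replicate. Mating was done three times.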

Ab-95 is the parent antibody, in scFv form: VH, then a (GGGGS)3 linker, then VL. The heavy chain is unchanged in all variants.
VH: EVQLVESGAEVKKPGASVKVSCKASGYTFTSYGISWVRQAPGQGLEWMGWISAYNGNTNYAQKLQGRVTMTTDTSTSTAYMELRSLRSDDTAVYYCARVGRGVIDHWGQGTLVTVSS
VL: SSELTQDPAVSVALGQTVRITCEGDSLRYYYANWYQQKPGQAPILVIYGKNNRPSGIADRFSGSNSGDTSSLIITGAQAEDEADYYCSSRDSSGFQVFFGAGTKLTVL

Changes read parent residue, position, new residue, counted from the first residue of the VL shown. Numbers give log10(Kd / nM), so 0 is 1 nM and 3 is 1 µM. Smaller is tighter. "ND" marks a missing value. The strain was present, yet no cells mated with the target were sequenced in that replicate, which points to weak or no binding. As a blank, each scFv also met three strains without target: over library AAYL52, 28% of these pairings were detected, typically at 3.91 and seldom below 2.90. The control count says in how many pairings with the empty strains this scFv gave a signal, with their mean in brackets.

changes	log10 Kd (nM) by replicate	signal with controls
G24A/S26K/S93L	ND ND ND	2 of 9 (3.82)
G24I	2.51 2.56 3.51	3 of 9 (3.46)
Y29V/K50F/D91H	ND ND 3.71	1 of 9 (4.43)
R28P/Y31S/R53C	ND ND ND	2 of 9 (3.29)
Y31S/N33K/R90E	5.16 ND 2.87	1 of 9 (3.73)
E23N/G24C/N52L	4.28 2.68 2.79	2 of 9 (3.60)
V97E	4.29 ND ND	2 of 9 (3.13)
G49I/K50G/R90D	ND 3.64 ND	5 of 9 (3.95)
L27K/Y30W/N51L	4.14 ND ND	2 of 9 (3.37)
S26G/L27C/Q96S	3.77 3.76 3.78	5 of 9 (4.40)
S26F/Y29P/S92H	ND 3.35 4.22	3 of 9 (3.60)
E23S/S89P/S93W	2.58 2.76 2.58	4 of 9 (4.35)
D25R/G94E/V97S	3.71 ND ND	1 of 9 (3.45)
G24T/L27P/S55I	ND ND ND	1 of 9 (4.73)
G49M/D91R/V97C	3.57 3.56 3.71	6 of 9 (3.76)
L27I/Y31R/S55D	2.51 2.64 2.98	2 of 9 (3.69)
S26F/K50S/P54E	ND ND ND	2 of 9 (4.16)
E23N/Y29G/F95A	1.49 1.35 0.98	8 of 9 (4.22)
D25V/K50I/S55R	3.37 3.55 3.86	4 of 9 (4.83)
D25C/R28M/N33V	ND 4.59 4.01	5 of 9 (4.32)
E23L/P54C/S89E	ND ND ND	2 of 9 (4.51)
E23I/Y29L/V97D	2.06 1.91 1.61	2 of 9 (3.44)
Y29I/N51Q/F95G	4.85 ND ND	1 of 9 (3.37)
R28A/Y31N/K50M	1.13 1.14 0.54	3 of 9 (4.56)
L27F/N33V/Q96P	ND 3.95 ND	5 of 9 (3.83)
G24C/Y30D/S92G	3.30 3.12 3.17	4 of 9 (4.40)
E23F/Y29T/S88D	3.20 3.18 3.93	3 of 9 (4.10)
Y30P/K50A/P54I	4.96 3.06 3.95	0 of 9
Y30F/A32F/N52Y	1.37 1.40 0.68	5 of 9 (4.64)
D25A/R90E/F95E	ND ND ND	0 of 9
E23G/P54S	2.16 2.27 1.76	3 of 9 (3.62)
R53Q/S93H/G94L	3.29 4.57 4.22	2 of 9 (4.05)
S26C/S55Q/F98V	3.94 ND ND	0 of 9
S26I/A32W	ND ND 4.50	2 of 9 (4.92)
R28L/G49I/R53T	ND ND ND	3 of 9 (3.70)
G24L/A32K/K50W	ND 3.66 3.95	8 of 9 (3.87)

Extract of 4 entries:

changes	log10 Kd (nM) by replicate	signal with controls
R28L/G49I/R53T	ND ND ND	3 of 9 (3.70)
S26G/L27C/Q96S	3.77 3.76 3.78	5 of 9 (4.40)
E23N/Y29G/F95A	1.49 1.35 0.98	8 of 9 (4.22)
Y30P/K50A/P54I	4.96 3.06 3.95	0 of 9